Laboratory results: patent US20070161611A1, “POLYCYCLIC PHENOLIC COMPOUNDS AND USE IN TREATING VIRAL INFECTIONS” (priority 2005, published 2007)

System: BVDV-NADL
Experiment: Protection of MDBK cells from BVDV-induced cytopathicity (MTS/PMS CPE reduction assay)
Type: cell-based, Bovine Viral Diarrhea virus
Settings: MOI of 0.01, monotherapy run in parallel to combination studies
Description: Cell proliferation was monitored using a non-radioactive MTS/PMS assay (MTS: 3-(4,5-dimethylthiazol-2-yl)-5-(3-carboxymethoxy phenyl)-2-(4-sulfophenyl)-2H-tetrazolium (Promega, Madison, Wis.)); (PMS: phenazine methosulfate (Sigma Aldrich, St. Louis, Mo.)). MDBK cells were seeded into 96-well plates at a density of approximately 2×10^4 cells per well. The cultures were incubated 3-24 hours to permit attachment of the cells to the plates prior to infection and addition of compounds. […] A 96-well microtiter spectrophotometer plate reader was used to measure the absorbance at 490 nm after incubation of the 96-well plate for 1 to 4 hours at 37° C. in a humidified, 5% CO2 atmosphere. The mean absorbance in each set of triplicate wells was determined. Antiviral activity was measured as MTS conversion relative to the differential between the conversion for cell (non-infected) and viral (non-drug-treated) controls. The cytopathic effect (CPE) reduction for each concentration of the tested compound, which correlated with antiviral activity, was calculated as follows. % CPE reduction=[(D−ND)/(NI−ND)]×100, where D (drug-treated)=the absorbance of drug-treated cells; ND (non drug-treated)=the absorbance of untreated infected cells; and NI (non-infected)=the absorbance of non-infected cells. […]

In the case of “IFN α-2b: Interferon α-2b (PBL Biomedical Laboratories)”, the “EC50 (monotherapy)” value is reported as 5.79 IU/mL.
